# Source: patent publication US11608326B2, “Synthetic receptors for ionophoric compounds” (Universiteit Gent, priority 2018, dated 2023)
# Experiments:
# HepG2 cells = assay: NR assay, HepG2 cells, 24 h incubation with beauvericin and receptor; assay type: cell-based; conditions: 15 μM BEA alone
# Procedure: HepG2 cells were grown in T25 or T75 flasks containing 4 ml or 12 ml of growth medium respectively. The growth medium contained: 10% foetal bovine serum, 1% antibiotics (Pen Strep, 10000 units/ml Penicillin+10000 μg/ml Streptomycin, purchased from Gibco, Thermofisher), 1% non-essential amino acids and cell medium (Dulbecco's Modified Eagle Medium+GlutaMAX, purchased from Gibco, Thermofisher). Cells were incubated in an atmosphere containing 5% CO2. 96-Well plates were prepared containing 0.2 ml of growth medium and 40.000 cells/well. […] The resulting plates are then incubated overnight. The growth medium was removed from the plate and the wells were filled with 200 μL of the appropriate treatment condition. Taking the 5 μM BEA+10 eq V1 treatment condition as an example: 20 μL from a 6.38·10^−3 M stock solution of BEA (in DMF) is added to 80 μL DMF (=solution A). From a stock solution of V1 (1.82·10^−5 M in DMF), 50 μL is taken and added to 50 μL DMF (=solution B). Then 16.5 μL is taken from this solution and added to a mixture containing 23.5 μL of solution A and 20 μL DMF. This solution was subsequently added to 5940 μL of growth medium. […]
# After the treatment, each well was washed once with growth medium (without antibiotics nor serum). […] After 20 min, the UV-VIS absorbance is measured at 540 nm using a plate reader.
# [1] = mice, intraperitoneally 5 mg/kg bw for three consecutive days; cited from earlier work
substance,measurement,setting,value
beauvericin,"cell survival (NR assay), toxin alone",HepG2 cells,had died
same,bioaccumulation,[1],bioaccumulation in the liver and lipophilic tissue was observed
